Apparent affinities of Ab-14 variants for a coronavirus HR2 peptide

All variants were tested on one target, the spike HR2 peptide PDVDLGDISGINAS (SARS-CoV-2).

Parent: Ab-14, a human scFv built as VH, three GGGGS repeats, VL. Only the CDRs of the heavy chain vary.
VH: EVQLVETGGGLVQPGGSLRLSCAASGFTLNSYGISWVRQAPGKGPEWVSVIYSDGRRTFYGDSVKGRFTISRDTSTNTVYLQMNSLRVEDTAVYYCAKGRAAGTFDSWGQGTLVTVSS
VL: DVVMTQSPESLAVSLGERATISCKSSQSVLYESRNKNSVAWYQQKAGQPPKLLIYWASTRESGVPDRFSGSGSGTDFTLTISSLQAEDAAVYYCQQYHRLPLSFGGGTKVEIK

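In library AAYL49, one, two or three CDR residues were substituted; doubles and triples were drawn at random. Affinity was read by AlphaSeq, a pooled yeast mating assay with surface-displayed partners. Binding brings cells together so that they mate, and sequencing counts the barcode pairs among the diploids. The ratio of observed to expected reads was calibrated, replicate by replicate, on BCL2-family standards whose Kd was known from biolayer interferometry. The assay was run in three technical replicates.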

Positions count from residue 1 of the parent VH; A101H puts H in place of A. Values are log10 of the apparent Kd in nM; lower means stronger binding. A mean of the replicates is given; it leaves out those without a signal. Where no diploid with the target was found in any replicate, the entry reads "nd": below detection, most likely a poor binder, though not proof of it. Order: sorted from the lowest average up, undetected variants last. Three control strains display no target. For library AAYL49, 15% of the pairings with them gave a signal, with a median of 4.06 and one signal in twenty below 2.83, so weak values seen in few replicates may be background.

For A101H/T104Q/S107T, the assay gave 1.05 (3 of 3 replicates).
For Y32K/G33M/S63Q, the assay gave 1.10 (3 of 3 replicates).
For L29V/V50I/R57W, the assay gave 2.72 (1 of 3 replicates).
For F27V/K65E/G99F, the assay gave 2.96 (3 of 3 replicates).
For S31G/I51R/Y60S, the assay gave 3.16 (1 of 3 replicates).
For G33A/A101P, the assay gave 3.74 (1 of 3 replicates).
For I34Y/I51Y/F105G, the assay gave 3.79 (1 of 3 replicates).
For Y60N/G99M, the assay gave 3.80 (1 of 3 replicates).
For S53Q/R100N/A102G, the assay gave 3.81 (1 of 3 replicates).
For T28A/R56C/A102C, the assay gave 3.82 (1 of 3 replicates).
For G26L/N30T/G103C, the assay gave 4.09 (2 of 3 replicates).
For N30Y/S53Y/T58E, the assay gave 4.16 (1 of 3 replicates).
For G26C/Y52W/S63G, the assay gave 4.32 (2 of 3 replicates).
For N30H/R57I/G99S, the assay gave 4.49 (3 of 3 replicates).
For Y32G/S53C/F59V, the assay gave 4.54 (3 of 3 replicates).
For D62Y/A101G/A102Q, the assay gave 5.17 (1 of 3 replicates).
For T28G/A101Q/A102Y, the assay gave 5.23 (1 of 3 replicates).
For S35G/R56S/T104M, the assay gave 5.61 (1 of 3 replicates).
For Y32Q/G103R/D106C, the assay gave 5.75 (1 of 3 replicates).
For D54P/R57S/A101L, the assay gave nd (0 of 3 replicates).
For T28P/L29I/R57P, the assay gave nd (0 of 3 replicates).
For V50Y/R56G/A101W, the assay gave nd (0 of 3 replicates).

The remaining entries, values ahead:

nd (0 of 3 replicates) for Y32F/G33V/R57P.
nd (0 of 3 replicates) for G33N/V50Y/V64A.
nd (0 of 3 replicates) for F59Q/A101Q/F105A.
nd (0 of 3 replicates) for R57K/V64N/G99F.
nd (0 of 3 replicates) for N30K/V64T/G99E.
nd (0 of 3 replicates) for S53V/S63Y/G99M.
nd (0 of 3 replicates) for S53N/G99T/A101Q.
nd (0 of 3 replicates) for F59D/K65P/F105V.
nd (0 of 3 replicates) for G33E/G55P/T104G.
nd (0 of 3 replicates) for G26I/S53I.
nd (0 of 3 replicates) for Y32N/I34P/F105L.
nd (0 of 3 replicates) for G26K/G33S/R56I.
nd (0 of 3 replicates) for R56E/R57Y/Y60S.
nd (0 of 3 replicates) for S31E/I51H/V64H.
nd (0 of 3 replicates) for T28S/G99I/D106S.
nd (0 of 3 replicates) for I51Q/K65N/R100H.
nd (0 of 3 replicates) for L29S/S53I/D54K.
nd (0 of 3 replicates) for N30D/Y52N/D54I.
nd (0 of 3 replicates) for Y32D/G55E/Y60Q.
nd (0 of 3 replicates) for G26L/S53F/V64H.
nd (0 of 3 replicates) for S35G/V50S/D54T.
nd (0 of 3 replicates) for L29S/T104L/F105C.
nd (0 of 3 replicates) for Y32N/R57F/Y60F.

Excerpt, the first 7 entries:

For A101H/T104Q/S107T, the assay gave 1.05 (3 of 3 replicates).
For Y32K/G33M/S63Q, the assay gave 1.10 (3 of 3 replicates).
For L29V/V50I/R57W, the assay gave 2.72 (1 of 3 replicates).
For F27V/K65E/G99F, the assay gave 2.96 (3 of 3 replicates).
For S31G/I51R/Y60S, the assay gave 3.16 (1 of 3 replicates).
For G33A/A101P, the assay gave 3.74 (1 of 3 replicates).
For I34Y/I51Y/F105G, the assay gave 3.79 (1 of 3 replicates).

For reference, the parent read 0.65 as the reference entry and 4.11 (one replicate of three) as a member of this library.

From the AlphaSeq antibody data of Engelhart et al. 2022 (doi:10.1038/s41597-022-01779-4), copy in the FLAb collection.